In article PMC4490944 (Journal of immunology (Baltimore, Md. : 1950), 2015):

Molecular target: HLA-DR1 (DR1) (DRA*0101/DRB1*010101) (Homo sapiens, UniProt P01903+P01911, A100R/D57E/F55L/F60I/F76Y/I96L/L162R/M171V/P40L/Q125E/R42F/V115G/Y59C)
Test: MHC II stabilization assay
Conditions: 1 μM peptide-free DR1 with 1 μM HA or 1 μM DM, 37 °C overnight, pH 5.5, Superdex200; at least four independent experiments

Ac-PKYVKQNTLKLAT [HA peptide]
aggregation of non peptide-loaded DR1: stabilized MHC II such that aggregation was not observed
